Source: patent US20160024487

Tests used:
[1] = test system: Lys(Dnp)-ATNATKTPRIVGG-Lys(Abz)
[2] = test system: Lys(Dnp)-ATNATKYPRIVGG-Lys(Abz)
[3] = test system: Lys(Dnp)-ATNATWAPRIVGG-Lys(Abz)
[4] = test system: Lys(Dnp)-ATNATAAPRIVGG-Lys(Abz)
[5] = test system: Lys(Dnp)-ATNATX4X3PRIVGG-Lys(Abz), X4 = E, X3 = T
[6] = test system: Lys(Dnp)-ATNATX4X3PRIVGG-Lys(Abz), X4 = V, X3 = D
[7] = test system: Lys(Dnp)-ATNATIKPRIVGG-Lys(Abz)
[8] = test system: Lys(Dnp)-ATNATX4X3PRIVGG-Lys(Abz), X4 = S, X3 = D
[9] = test system: Lys(Dnp)-LSKNNAIEPRIVGG-Lys(Abz)
[10] = test system: Lys(Dnp)-ATNATTRPRIVGG-Lys(Abz)
[11] = test system: Lys(Dnp)-ATNATFHPRIVGG-Lys(Abz)
[12] = test system: Lys(Dnp)-PDNIAAWYLRIVGG-Lys(Abz)
[13] = test system: Lys(Dnp)-ATNATHTPRIVGG-Lys(Abz)
[14] = test system: Lys(Dnp)-ATNATX4X3PRIVGG-Lys(Abz), X4 = N, X3 = M
[15] = test system: Lys(Dnp)-ATNATTDPRIVGG-Lys(Abz)
[16] = test system: Lys(Dnp)-ATNATX4X3PRIVGG-Lys(Abz), X4 = H, X3 = Q
[17] = test system: Lys(Dnp)-ATNATX4X3PRIVGG-Lys(Abz), X4 = E, X3 = K
[18] = test system: Lys(Dnp)-ATNATHHPRIVGG-Lys(Abz)
[19] = test system: Lys(Dnp)-ATNATMYPRIVGG-Lys(Abz)
[20] = test system: Lys(Dnp)-ATNATX4X3PRIVGG-Lys(Abz), X4 = P, X3 = N
[21] = test system: Lys(Dnp)-ATNATDPPRIVGG-Lys(Abz)
[22] = test system: Lys(Dnp)-ATNATFYPRIVGG-Lys(Abz)
[23] = test system: Lys(Dnp)-ATNATAEPRIVGG-Lys(Abz)
[24] = test system: Lys(Dnp)-TVELQGVVPRIVGG-Lys(Abz)
[25] = test system: Lys(Dnp)-ATNATX4X3PRIVGG-Lys(Abz), X4 = S, X3 = P
[26] = test system: Lys(Dnp)-ATNATTIPRIVGG-Lys(Abz)
[27] = test system: Lys(Dnp)-ATNATVKPRIVGG-Lys(Abz)
[28] = test system: Lys(Dnp)-ATNATEDPRIVGG-Lys(Abz)
[29] = test system: Lys(Dnp)-ATNATISPRIVGG-Lys(Abz)
[30] = test system: Lys(Dnp)-QISNDTVSPRIVGG-Lys(Abz)
[31] = test system: Lys(Dnp)-ATNATAYPRIVGG-Lys(Abz)
[32] = test system: Lys(Dnp)-ATNATYAPRIVGG-Lys(Abz)
[33] = test system: Lys(Dnp)-ATNATYHPRIVGG-Lys(Abz)
[34] = test system: Lys(Dnp)-ATNATX4X3PRIVGG-Lys(Abz), X4 = G, X3 = Y
[35] = test system: Lys(Dnp)-ATNATSAPRIVGG-Lys(Abz)
[36] = test system: Lys(Dnp)-ATNATGGPRIVGG-Lys(Abz)
[37] = test system: Lys(Dnp)-ATNATX4X3PRIVGG-Lys(Abz), X4 = H, X3 = S
[38] = test system: Lys(Dnp)-STPSILPAPRIVGG-Lys(Abz)
[39] = test system: Lys(Dnp)-ATNATHAPRIVGG-Lys(Abz)
[40] = test system: Lys(Dnp)-ATNATVAPRIVGG-Lys(Abz)

Substance: Human plasma purified alpha-thrombin
- FIIa kcat/KM [1]: 610 M⁻¹ s⁻¹
- Specificity Ratio (FIIa/FXa) [1]: 8
- FIIa kcat/KM [2]: 700 M⁻¹ s⁻¹
- Specificity Ratio (FIIa/FXa) [2]: 19

Substance: Human plasma purified α-thrombin
- FIIa kcat/KM [3]: 13000 M⁻¹ s⁻¹
- Functional Selectivity (Specificity*FIIa kcat/KM) [3]: 4.2e+06
- kcat/KM [3]: 13000 M⁻¹ s⁻¹
- FIIa kcat/KM [4]: 6200 M⁻¹ s⁻¹
- Functional Selectivity (Specificity*FIIa kcat/KM) [4]: 860000
- kcat/KM [4]: 6200 M⁻¹ s⁻¹
- FIIa kcat/KM [5]: 390 M⁻¹ s⁻¹
- Specificity Ratio (FIIa/FXa) [5]: 49
- FIIa kcat/KM [6]: 1100 M⁻¹ s⁻¹
- Specificity Ratio (FIIa/FXa) [6]: 16
- FIIa kcat/KM [7]: 24000 M⁻¹ s⁻¹
- Functional Selectivity (Specificity*FIIa kcat/KM) [7]: 4.7e+06
- kcat/KM [7]: 24000 M⁻¹ s⁻¹
- FIIa kcat/KM [8]: 740 M⁻¹ s⁻¹
- Specificity Ratio (FIIa/FXa) [8]: 72
- FIIa kcat/KM [9]: 13000 M⁻¹ s⁻¹
- Functional Selectivity (Specificity*FIIa kcat/KM) [9]: 170000
- Specificity Ratio (FIIa/FXa) [9]: 13
- kcat/KM [9]: 13000 M⁻¹ s⁻¹
- FIIa kcat/KM [10]: 2300 M⁻¹ s⁻¹
- Specificity Ratio (FIIa/FXa) [10]: 63
- kcat/KM [10]: 2300 M⁻¹ s⁻¹
- FIIa kcat/KM [11]: 17000 M⁻¹ s⁻¹
- Functional Selectivity (Specificity*FIIa kcat/KM) [11]: 2e+06
- kcat/KM [11]: 17000 M⁻¹ s⁻¹
- FIIa kcat/KM [12]: 98 M⁻¹ s⁻¹
- Functional Selectivity (Specificity*FIIa kcat/KM) [12]: 660
- Specificity Ratio (FIIa/FXa) [12]: 7
- kcat/KM [12]: 98 M⁻¹ s⁻¹
- kcat/KM [13]: 1500 M⁻¹ s⁻¹
- FIIa kcat/KM [14]: 720 M⁻¹ s⁻¹
- Specificity Ratio (FIIa/FXa) [14]: 27
- FIIa kcat/KM [15]: 1000 M⁻¹ s⁻¹
- Specificity Ratio (FIIa/FXa) [15]: 91
- FIIa kcat/KM [16]: 1800 M⁻¹ s⁻¹
- Specificity Ratio (FIIa/FXa) [16]: 11
- FIIa kcat/KM [17]: 650 M⁻¹ s⁻¹
- Specificity Ratio (FIIa/FXa) [17]: 83
- FIIa kcat/KM [18]: 2000 M⁻¹ s⁻¹
- Specificity Ratio (FIIa/FXa) [18]: 78
- FIIa kcat/KM [19]: 12000 M⁻¹ s⁻¹
- Functional Selectivity (Specificity*FIIa kcat/KM) [19]: 1.3e+06
- kcat/KM [19]: 12000 M⁻¹ s⁻¹
- FIIa kcat/KM [20]: 6700 M⁻¹ s⁻¹
- Specificity Ratio (FIIa/FXa) [20]: 12
- FIIa kcat/KM [21]: 0.00066 M⁻¹ s⁻¹
- Functional Selectivity (Specificity*FIIa kcat/KM) [21]: 2.8e-07
- Specificity Ratio (FIIa/FXa) [21]: 0
- kcat/KM [21]: 0.00066 M⁻¹ s⁻¹
- FIIa kcat/KM [22]: 12000 M⁻¹ s⁻¹
- Functional Selectivity (Specificity*FIIa kcat/KM) [22]: 1.9e+06
- kcat/KM [22]: 12000 M⁻¹ s⁻¹
- kcat/KM [23]: 3300 M⁻¹ s⁻¹
- FIIa kcat/KM [24]: 12000 M⁻¹ s⁻¹
- Functional Selectivity (Specificity*FIIa kcat/KM) [24]: 1.3e+06
- Specificity Ratio (FIIa/FXa) [24]: 114
- kcat/KM [24]: 12000 M⁻¹ s⁻¹
- FIIa kcat/KM [25]: 450 M⁻¹ s⁻¹
- Specificity Ratio (FIIa/FXa) [25]: 36
- kcat/KM [26]: 1200 M⁻¹ s⁻¹
- FIIa kcat/KM [27]: 9900 M⁻¹ s⁻¹
- Functional Selectivity (Specificity*FIIa kcat/KM) [27]: 2.6e+06
- kcat/KM [27]: 9900 M⁻¹ s⁻¹
- kcat/KM [28]: 1200 M⁻¹ s⁻¹
- FIIa kcat/KM [29]: 14000 M⁻¹ s⁻¹
- Specificity Ratio (FIIa/FXa) [29]: 23
- kcat/KM [29]: 14000 M⁻¹ s⁻¹
- FIIa kcat/KM [30]: 5300 M⁻¹ s⁻¹
- Functional Selectivity (Specificity*FIIa kcat/KM) [30]: 83000
- Specificity Ratio (FIIa/FXa) [30]: 16
- kcat/KM [30]: 5300 M⁻¹ s⁻¹
- FIIa kcat/KM [31]: 11000 M⁻¹ s⁻¹
- Functional Selectivity (Specificity*FIIa kcat/KM) [31]: 5.1e+06
- kcat/KM [31]: 11000 M⁻¹ s⁻¹
- FIIa kcat/KM [32]: 4800 M⁻¹ s⁻¹
- Specificity Ratio (FIIa/FXa) [32]: 98
- kcat/KM [32]: 4800 M⁻¹ s⁻¹
- FIIa kcat/KM [33]: 4800 M⁻¹ s⁻¹
- Specificity Ratio (FIIa/FXa) [33]: 114
- kcat/KM [33]: 4800 M⁻¹ s⁻¹
- FIIa kcat/KM [34]: 1500 M⁻¹ s⁻¹
- Specificity Ratio (FIIa/FXa) [34]: 43
- kcat/KM [35]: 790 M⁻¹ s⁻¹
- kcat/KM [36]: 820 M⁻¹ s⁻¹
- FIIa kcat/KM [37]: 1300 M⁻¹ s⁻¹
- Specificity Ratio (FIIa/FXa) [37]: 21
- FIIa kcat/KM [38]: 9400 M⁻¹ s⁻¹
- Functional Selectivity (Specificity*FIIa kcat/KM) [38]: 380000
- Specificity Ratio (FIIa/FXa) [38]: 40
- kcat/KM [38]: 9400 M⁻¹ s⁻¹
- kcat/KM [39]: 960 M⁻¹ s⁻¹
- FIIa kcat/KM [40]: 4200 M⁻¹ s⁻¹
- Specificity Ratio (FIIa/FXa) [40]: 67
- kcat/KM [40]: 4200 M⁻¹ s⁻¹
